Source: publication PMC10051608, “Multi-Compartmental Dissolution Method, an Efficient Tool for the Development of Enhanced Bioavailability Formulations Containing Poorly Soluble Acidic Drugs” (Pharmaceutics, 2023)

Test: Equilibrium solubility in biorelevant media, saturation shake-flask method
Format: physicochemical
Settings: FaSSGF blank, pH 1.6, 37 °C

CC(C)Cc1ccc(C(C)C(=O)O)cc1 (stereo not shown) [ibuprofen]
SpH ± SD: 56.3 ± 0.6 µg/mL
